System: A-375
Assay: Antiproliferation activity against human A-375 cells assessed as cell growth inhibition incubated for 5 days by CCK-8 assay
Format: functional, cell-based
Settings: time 5.0 day

C[C@H](Oc1ccc(-c2cc3c(C4=CCNCC4)ncnc3[nH]2)cc1)c1ccccc1
Activity: Dde
